These results are taken from paper PMC7445463 (Diabetologia, 2020).

This test concerns SD rat islets. Kind of test: Perifusion of rat islets, GSIS. The format is cell-based. As to conditions: step-wise or gradient assays.

Consider `CC[C@H](C)[C@H](NC(=O)[C@H](CO)NC(=O)[C@H](Cc1ccc(O)cc1)NC(=O)[C@H](CC(=O)O)NC(=O)[C@H](CO)NC(=O)[C@@H](NC(=O)[C@H](Cc1ccccc1)NC(=O)[C@@H](NC(=O)CNC(=O)[C@H](CCC(=O)O)NC(=O)[C@H](C)NC(=O)[C@@H](N)Cc1ccc(O)cc1)[C@@H](C)O)[C@@H](C)CC)C(=O)N[C@@H](C)C(=O)N[C@@H](CCSC)C(=O)N[C@@H](CC(=O)O)C(=O)N[C@@H](CCCCN)C(=O)N[C@H](C(=O)N[C@@H](Cc1c[nH]cn1)C(=O)N[C@@H](CCC(N)=O)C(=O)N[C@@H](CCC(N)=O)C(=O)N[C@@H](CC(=O)O)C(=O)N[C@@H](Cc1ccccc1)C(=O)N[C@H](C(=O)N[C@@H](CC(N)=O)C(=O)N[C@@H](Cc1c[nH]c2ccccc12)C(=O)N[C@@H](CC(C)C)C(=O)N[C@@H](CC(C)C)C(=O)N[C@@H](C)C(=O)N[C@@H](CCC(N)=O)C(=O)N[C@@H](CCCCN)C(=O)NCC(=O)N[C@@H](CCCCN)C(=O)N[C@@H](CCCCN)C(=O)N[C@@H](CC(N)=O)C(=O)N[C@@H](CC(=O)O)C(=O)N[C@@H](Cc1c[nH]c2ccccc12)C(=O)N[C@@H](CCCCN)C(=O)N[C@@H](Cc1c[nH]cn1)C(=O)N[C@@H](CC(N)=O)C(=O)N[C@H](C(=O)N[C@H](C(=O)N[C@@H](CCC(N)=O)C(=O)O)[C@@H](C)O)[C@@H](C)CC)C(C)C)[C@@H](C)CC` [GIP], for which the “potency relative to GLP-1 to potentiate GSIS” value is recorded as “at least 3 fold”.
